In assay [1] the target is HDAC1 (Homo sapiens (Human), UniProt Q13547). Nature of the assay: HDAC1 inhibition. It counts as biochemical.
Assay [2] addresses HDAC5 (Homo sapiens (Human), UniProt Q9UQL6). Description: HDAC5 inhibition. In kind it is biochemical.
The test system of assay [3] is MCF7 Breast Tumour Cell. Nature of the assay: MCF7 Breast Tumour Cell Proliferation Inhibition. It counts as cell-based. The settings on record: Homo sapiens; MCF7 cells.

Chains of the proteins cited; added tags and fusions are not shown.
UniProt Q13547, whole entry, species assumed: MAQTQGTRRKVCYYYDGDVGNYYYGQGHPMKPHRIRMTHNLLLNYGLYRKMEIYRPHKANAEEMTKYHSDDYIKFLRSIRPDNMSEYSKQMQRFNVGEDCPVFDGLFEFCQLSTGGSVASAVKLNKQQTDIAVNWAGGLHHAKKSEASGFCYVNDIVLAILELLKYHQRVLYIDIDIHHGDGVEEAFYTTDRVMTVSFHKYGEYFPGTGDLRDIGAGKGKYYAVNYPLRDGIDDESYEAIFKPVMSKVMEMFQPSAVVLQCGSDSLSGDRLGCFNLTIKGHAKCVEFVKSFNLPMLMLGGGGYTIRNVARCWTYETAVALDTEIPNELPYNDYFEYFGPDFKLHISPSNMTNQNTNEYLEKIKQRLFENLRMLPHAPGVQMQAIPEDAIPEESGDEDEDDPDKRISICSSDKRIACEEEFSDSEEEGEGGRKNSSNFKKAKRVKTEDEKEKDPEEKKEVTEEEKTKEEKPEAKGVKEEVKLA
UniProt Q9UQL6, whole entry, species assumed: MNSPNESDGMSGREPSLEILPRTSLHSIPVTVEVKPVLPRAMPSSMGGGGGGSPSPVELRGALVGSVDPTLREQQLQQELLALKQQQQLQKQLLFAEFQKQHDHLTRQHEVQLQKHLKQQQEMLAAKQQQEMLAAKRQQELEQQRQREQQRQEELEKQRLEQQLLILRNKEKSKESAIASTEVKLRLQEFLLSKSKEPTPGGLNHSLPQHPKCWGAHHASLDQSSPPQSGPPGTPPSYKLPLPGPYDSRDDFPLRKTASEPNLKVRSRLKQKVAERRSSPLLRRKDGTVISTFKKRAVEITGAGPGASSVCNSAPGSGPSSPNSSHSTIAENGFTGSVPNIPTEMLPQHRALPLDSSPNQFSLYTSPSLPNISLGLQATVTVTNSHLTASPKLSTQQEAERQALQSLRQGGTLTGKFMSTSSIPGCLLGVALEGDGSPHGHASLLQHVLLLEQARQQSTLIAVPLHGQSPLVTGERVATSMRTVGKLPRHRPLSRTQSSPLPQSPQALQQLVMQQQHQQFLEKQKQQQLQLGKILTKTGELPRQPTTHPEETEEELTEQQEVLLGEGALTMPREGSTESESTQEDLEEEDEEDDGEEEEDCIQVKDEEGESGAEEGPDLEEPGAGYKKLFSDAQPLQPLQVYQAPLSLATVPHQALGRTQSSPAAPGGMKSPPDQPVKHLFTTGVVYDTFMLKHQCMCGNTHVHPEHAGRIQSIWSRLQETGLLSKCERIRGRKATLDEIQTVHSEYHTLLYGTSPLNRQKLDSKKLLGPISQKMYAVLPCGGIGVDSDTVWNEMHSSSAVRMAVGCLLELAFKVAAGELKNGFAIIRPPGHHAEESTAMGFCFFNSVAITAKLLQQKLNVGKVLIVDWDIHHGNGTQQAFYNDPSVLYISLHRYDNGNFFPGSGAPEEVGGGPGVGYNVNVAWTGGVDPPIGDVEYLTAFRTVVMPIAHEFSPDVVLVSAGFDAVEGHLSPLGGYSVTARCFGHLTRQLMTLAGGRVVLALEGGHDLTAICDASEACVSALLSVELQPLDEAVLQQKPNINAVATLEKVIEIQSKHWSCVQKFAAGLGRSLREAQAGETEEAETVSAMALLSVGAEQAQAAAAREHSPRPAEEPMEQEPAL

With `O=C(CCCCCCN(c1ccccn1)c1ccccn1)NO` [Example 3, 7-(Dipyridin-2-ylamino)-N-hydroxyheptanamide], the IC50 in assay [1] stood at 458 nM; in assay [2], 458 nM; in assay [3], 466 nM.

Source of the values: patent US8748458B2, “Scriptaid isosteres and their use in therapy” (Karus Therapeutics Limited, priority 2009, dated 2014).
